Laboratory results as given in ChEMBL document CHEMBL4270621, “Discovery of long-chain salicylketoxime derivatives as monoacylglycerol lipase (MAGL) inhibitors” (Eur J Med Chem, 2018).

The chains behind the UniProt entries cited, without tags or fusion partners.
UniProt P03372, whole entry: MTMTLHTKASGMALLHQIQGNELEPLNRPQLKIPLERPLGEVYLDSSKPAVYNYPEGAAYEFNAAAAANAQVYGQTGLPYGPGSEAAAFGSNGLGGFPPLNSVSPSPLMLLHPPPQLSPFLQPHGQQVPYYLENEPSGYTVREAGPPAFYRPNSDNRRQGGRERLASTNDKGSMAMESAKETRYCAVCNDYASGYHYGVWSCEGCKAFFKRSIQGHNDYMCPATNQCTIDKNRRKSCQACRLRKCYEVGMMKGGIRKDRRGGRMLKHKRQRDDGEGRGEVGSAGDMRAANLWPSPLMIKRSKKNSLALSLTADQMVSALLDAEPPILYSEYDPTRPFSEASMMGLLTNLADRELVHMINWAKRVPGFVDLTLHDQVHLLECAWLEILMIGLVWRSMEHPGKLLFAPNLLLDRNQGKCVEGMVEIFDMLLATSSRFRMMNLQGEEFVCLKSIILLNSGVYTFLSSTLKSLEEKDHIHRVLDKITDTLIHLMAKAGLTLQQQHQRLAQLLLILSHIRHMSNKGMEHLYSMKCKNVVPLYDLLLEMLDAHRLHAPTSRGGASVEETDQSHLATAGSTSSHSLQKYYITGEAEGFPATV
UniProt Q92731, whole entry: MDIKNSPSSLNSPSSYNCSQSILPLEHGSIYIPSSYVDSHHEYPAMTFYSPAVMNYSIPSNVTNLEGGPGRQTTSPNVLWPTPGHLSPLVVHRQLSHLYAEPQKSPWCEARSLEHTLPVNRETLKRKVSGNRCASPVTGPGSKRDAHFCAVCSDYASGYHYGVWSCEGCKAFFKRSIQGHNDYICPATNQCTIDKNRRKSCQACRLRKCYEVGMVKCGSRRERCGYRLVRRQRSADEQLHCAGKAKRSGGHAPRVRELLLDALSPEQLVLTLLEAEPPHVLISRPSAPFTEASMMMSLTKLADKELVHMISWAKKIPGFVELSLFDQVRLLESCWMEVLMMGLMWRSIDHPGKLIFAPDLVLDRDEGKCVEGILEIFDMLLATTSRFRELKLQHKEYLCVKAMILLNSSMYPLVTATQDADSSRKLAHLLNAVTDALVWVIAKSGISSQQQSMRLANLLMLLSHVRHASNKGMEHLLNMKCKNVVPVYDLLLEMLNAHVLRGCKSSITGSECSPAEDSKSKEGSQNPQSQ

Columns and labels:
[1] = molecular target: Estrogen receptor (Homo sapiens) (UniProt P03372); experiment: Displacement of [3H]-estradiol from full length human untagged ERalpha expressed in Sf insect cells after 18 to 24 hrs by radiometric method relative to estradiol
[2] = molecular target: Estrogen receptor beta (Homo sapiens) (UniProt Q92731); experiment: Displacement of [3H]-estradiol from full length human ERbeta expressed in insect cells after 18 to 24 hrs by radiometric method relative to estradiol

| RBA [1] [%] | RBA [2] [%] | SMILES |
| --- | --- | --- |
| 0.31 | 6.8 | CCCCCCCCCCC/C(=N\O)c1cc(-c2ccc(O)c(F)c2)ccc1O |
| 0.17 | 2.6 | CCCCCCCCCCCCC/C(=N\O)c1cc(-c2ccc(O)c(F)c2)ccc1O |
